# Source: ChEMBL document CHEMBL6087483, “Discovery of Potent, Highly Selective, and Orally Bioavailable MTA Cooperative PRMT5 Inhibitors with Robust In Vivo Antitumor Activity” (J Med Chem, 2025)
# Legend:
# [1] = Volume of distribution at steady state in male CD-1 mouse at 5 mg/kg, po or 1 mg/kg, iv measured upto 24 hrs; format: ADME, organism-based; conditions: in vivo
# [2] = Selectivity ratio of IC50 for antiproliferative activity against MTAP wild type human HCT-116 cells to IC50 for antiproliferative activity against MTAP deleted human HCT-116 cells; format: functional
smiles,measurement,setting,value
CN(C(=O)c1cc2c3c(c(N)nc2cc1F)COC3)[C@@H]1CCN(c2ccc(C#N)cc2)C1,Vdss,[1],1.45 L/kg
same,Ratio IC50,[2],127
